In US20030073705A1, “Method of treatment” (priority 2001, published 2003):

Test system: patients with Type 2 diabetes and nephropathy
Assay: Discontinuation from study therapy and adverse experiences
Conditions: n = 751
Procedure: The study involved male and female patients ranging in age from 31 to 70 years diagnosed with Type 2 diabetes and nephropathy; the latter defined as two urine albumin:creatinine ratios from a first morning specimen >300 mg/g (34 mg/mmol) (or a 24-hr urine protein >=500 mg (0.5 g/day)) and two serum creatinine values between 1.3 and 3.0 mg/dL (115 and 265 μmol/L) (lower limit of 1.5 mg/dL (133 μmol/L)for males >60 kg). […] Journal of the Renin Angiotensin Aldosterone System 2000;1(4):328-35. Patients were excluded from the study if diagnosed with Type 1 diabetes or nondiabetic renal disease, including renal artery stenosis. Patients with a history of heart failure, myocardial infarction or coronary artery bypass grafting within 1 month, cerebral vascular accident or percutaneous transluminal coronary angioplasty within 6 months or transient ischemic attacks within 1 year prior to enrollment were excluded.
During the 6-week screening phase, hypertensive patients continued to take their standard antihypertensive therapy. However, in those patients taking angiotensin I converting enzyme inhibitors or angiotensin II receptor antagonists, these agents were discontinued at the beginning of the screening phase and replaced by alternative open-label therapy at the investigator's discretion (diuretic, calcium-channel antagonist, α- or β-blocker, and/or centrally acting agent). […]

With “2-N-butyl-4-chloro-5-hydroxymethyl-1-[(2′-(1H-tetrazol-5-yl)biphenyl-4-yl)-methyl]imidazole, potassium salt [Losartan]” the “Laboratory adverse experience causing discontinuation: Serum Creatinine Increased” value was 12 (1.6) n (%).
